The experiment is described as follows: Selectivity ratio of IC50 for inhibition of human wild type partial length EGFR (R669 to V1011 residues) expressed in bacterial expression system to IC50 for human partial length EGFR (R669 to V1011 residues) L858R/T790M mutant expressed in mammalian expression system.

On to `C=CC(=O)Nc1cccc(Nc2nc(Nc3ccc(N4CCN(C)CC4)cc3)nc3ccc(F)cc23)c1`, for which the Ratio IC50 was 368.
